In the experiment the target is Kappa-type opioid receptor (Homo sapiens, UniProt P41145). Kind of experiment: In vitro binding affinity for human kappa opioid receptor was determined by using [3H]diprenorphine as radioligand.

Amino acid sequences for entries named in this document (tags omitted). A change or cut given only in a name is not applied to a line headed by its entry.
UniProt P41145: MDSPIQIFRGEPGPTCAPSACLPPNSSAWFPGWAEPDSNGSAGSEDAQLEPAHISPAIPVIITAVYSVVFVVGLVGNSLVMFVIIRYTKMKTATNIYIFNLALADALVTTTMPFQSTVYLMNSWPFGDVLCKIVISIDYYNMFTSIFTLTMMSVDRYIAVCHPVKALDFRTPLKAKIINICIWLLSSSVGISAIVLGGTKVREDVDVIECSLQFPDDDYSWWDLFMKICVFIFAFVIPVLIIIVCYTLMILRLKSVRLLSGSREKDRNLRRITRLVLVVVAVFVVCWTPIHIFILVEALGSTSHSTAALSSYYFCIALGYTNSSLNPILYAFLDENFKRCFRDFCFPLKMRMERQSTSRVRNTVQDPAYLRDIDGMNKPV

pKi: −log10 of the molar value.

The values that follow come from ChEMBL document CHEMBL1141989, “Amino acid conjugates as kappa opioid receptor agonists” (Bioorg Med Chem Lett, 2005).

For `CN(C(=O)Cc1ccc(Cl)c(Cl)c1)[C@H](CN1CCCC1)c1ccccc1`, the pKi was 10.37.
